# Results reported in US20190358196A1, “PI 4-KINASE INHIBITOR AS A THERAPEUTIC FOR VIRAL HEPATITIS, CANCER, MALARIA. AUTOIMMUNE DISORDERS AND INFLAMMATION, AND A RADIOSENSITIZER AND IMMUNOSUPPRESSANT” (priority 2016, published 2019).
# Chains of the proteins cited; added tags and fusions are not shown.
# UniProt Q9UBF8, whole entry: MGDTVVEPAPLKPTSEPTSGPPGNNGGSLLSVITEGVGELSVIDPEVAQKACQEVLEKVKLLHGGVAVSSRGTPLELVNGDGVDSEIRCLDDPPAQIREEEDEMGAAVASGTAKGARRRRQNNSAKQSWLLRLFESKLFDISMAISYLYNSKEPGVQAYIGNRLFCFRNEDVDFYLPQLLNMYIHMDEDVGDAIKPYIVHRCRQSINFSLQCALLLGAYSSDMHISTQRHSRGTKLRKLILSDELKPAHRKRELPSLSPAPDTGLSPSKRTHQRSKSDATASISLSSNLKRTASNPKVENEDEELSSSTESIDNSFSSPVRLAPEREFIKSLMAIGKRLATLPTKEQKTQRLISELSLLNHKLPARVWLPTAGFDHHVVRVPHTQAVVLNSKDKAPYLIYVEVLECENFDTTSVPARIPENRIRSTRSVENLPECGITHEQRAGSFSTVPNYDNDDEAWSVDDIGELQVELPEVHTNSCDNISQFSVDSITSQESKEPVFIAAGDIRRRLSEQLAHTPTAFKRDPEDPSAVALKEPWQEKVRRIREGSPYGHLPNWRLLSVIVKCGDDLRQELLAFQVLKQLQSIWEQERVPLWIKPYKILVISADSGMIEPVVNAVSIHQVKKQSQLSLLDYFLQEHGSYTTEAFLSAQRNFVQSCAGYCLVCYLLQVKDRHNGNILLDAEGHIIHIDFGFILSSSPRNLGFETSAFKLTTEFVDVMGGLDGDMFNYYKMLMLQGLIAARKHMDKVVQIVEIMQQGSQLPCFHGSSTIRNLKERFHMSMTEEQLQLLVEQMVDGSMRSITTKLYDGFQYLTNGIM
# UniProt P42336, whole entry: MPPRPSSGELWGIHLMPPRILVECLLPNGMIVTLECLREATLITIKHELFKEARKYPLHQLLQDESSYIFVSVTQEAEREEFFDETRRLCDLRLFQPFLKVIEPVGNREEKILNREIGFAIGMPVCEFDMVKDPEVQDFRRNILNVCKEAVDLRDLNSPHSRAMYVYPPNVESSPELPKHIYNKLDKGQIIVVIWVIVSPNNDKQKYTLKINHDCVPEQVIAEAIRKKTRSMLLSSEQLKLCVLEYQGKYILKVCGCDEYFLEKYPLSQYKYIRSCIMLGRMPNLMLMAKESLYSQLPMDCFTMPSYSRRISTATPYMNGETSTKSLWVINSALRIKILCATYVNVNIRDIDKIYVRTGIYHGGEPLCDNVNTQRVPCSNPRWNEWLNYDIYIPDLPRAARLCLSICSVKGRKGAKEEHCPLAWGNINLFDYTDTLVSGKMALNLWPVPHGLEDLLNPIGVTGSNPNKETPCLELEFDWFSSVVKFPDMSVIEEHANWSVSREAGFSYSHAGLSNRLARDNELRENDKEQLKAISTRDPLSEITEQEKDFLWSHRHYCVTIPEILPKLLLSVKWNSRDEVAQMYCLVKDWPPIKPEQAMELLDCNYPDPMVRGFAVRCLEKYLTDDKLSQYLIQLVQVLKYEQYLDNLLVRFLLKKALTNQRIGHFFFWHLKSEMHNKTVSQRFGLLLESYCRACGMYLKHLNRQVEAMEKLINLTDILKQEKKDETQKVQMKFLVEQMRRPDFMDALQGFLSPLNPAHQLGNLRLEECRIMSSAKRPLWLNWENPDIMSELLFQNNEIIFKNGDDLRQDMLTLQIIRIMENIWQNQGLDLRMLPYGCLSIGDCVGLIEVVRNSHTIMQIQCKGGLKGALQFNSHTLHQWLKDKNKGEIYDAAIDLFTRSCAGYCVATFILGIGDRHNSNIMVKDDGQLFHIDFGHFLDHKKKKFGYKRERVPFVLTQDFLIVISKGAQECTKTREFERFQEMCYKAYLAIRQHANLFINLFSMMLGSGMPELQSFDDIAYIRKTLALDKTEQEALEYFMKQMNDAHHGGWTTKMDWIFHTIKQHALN
# UniProt P42356, whole entry: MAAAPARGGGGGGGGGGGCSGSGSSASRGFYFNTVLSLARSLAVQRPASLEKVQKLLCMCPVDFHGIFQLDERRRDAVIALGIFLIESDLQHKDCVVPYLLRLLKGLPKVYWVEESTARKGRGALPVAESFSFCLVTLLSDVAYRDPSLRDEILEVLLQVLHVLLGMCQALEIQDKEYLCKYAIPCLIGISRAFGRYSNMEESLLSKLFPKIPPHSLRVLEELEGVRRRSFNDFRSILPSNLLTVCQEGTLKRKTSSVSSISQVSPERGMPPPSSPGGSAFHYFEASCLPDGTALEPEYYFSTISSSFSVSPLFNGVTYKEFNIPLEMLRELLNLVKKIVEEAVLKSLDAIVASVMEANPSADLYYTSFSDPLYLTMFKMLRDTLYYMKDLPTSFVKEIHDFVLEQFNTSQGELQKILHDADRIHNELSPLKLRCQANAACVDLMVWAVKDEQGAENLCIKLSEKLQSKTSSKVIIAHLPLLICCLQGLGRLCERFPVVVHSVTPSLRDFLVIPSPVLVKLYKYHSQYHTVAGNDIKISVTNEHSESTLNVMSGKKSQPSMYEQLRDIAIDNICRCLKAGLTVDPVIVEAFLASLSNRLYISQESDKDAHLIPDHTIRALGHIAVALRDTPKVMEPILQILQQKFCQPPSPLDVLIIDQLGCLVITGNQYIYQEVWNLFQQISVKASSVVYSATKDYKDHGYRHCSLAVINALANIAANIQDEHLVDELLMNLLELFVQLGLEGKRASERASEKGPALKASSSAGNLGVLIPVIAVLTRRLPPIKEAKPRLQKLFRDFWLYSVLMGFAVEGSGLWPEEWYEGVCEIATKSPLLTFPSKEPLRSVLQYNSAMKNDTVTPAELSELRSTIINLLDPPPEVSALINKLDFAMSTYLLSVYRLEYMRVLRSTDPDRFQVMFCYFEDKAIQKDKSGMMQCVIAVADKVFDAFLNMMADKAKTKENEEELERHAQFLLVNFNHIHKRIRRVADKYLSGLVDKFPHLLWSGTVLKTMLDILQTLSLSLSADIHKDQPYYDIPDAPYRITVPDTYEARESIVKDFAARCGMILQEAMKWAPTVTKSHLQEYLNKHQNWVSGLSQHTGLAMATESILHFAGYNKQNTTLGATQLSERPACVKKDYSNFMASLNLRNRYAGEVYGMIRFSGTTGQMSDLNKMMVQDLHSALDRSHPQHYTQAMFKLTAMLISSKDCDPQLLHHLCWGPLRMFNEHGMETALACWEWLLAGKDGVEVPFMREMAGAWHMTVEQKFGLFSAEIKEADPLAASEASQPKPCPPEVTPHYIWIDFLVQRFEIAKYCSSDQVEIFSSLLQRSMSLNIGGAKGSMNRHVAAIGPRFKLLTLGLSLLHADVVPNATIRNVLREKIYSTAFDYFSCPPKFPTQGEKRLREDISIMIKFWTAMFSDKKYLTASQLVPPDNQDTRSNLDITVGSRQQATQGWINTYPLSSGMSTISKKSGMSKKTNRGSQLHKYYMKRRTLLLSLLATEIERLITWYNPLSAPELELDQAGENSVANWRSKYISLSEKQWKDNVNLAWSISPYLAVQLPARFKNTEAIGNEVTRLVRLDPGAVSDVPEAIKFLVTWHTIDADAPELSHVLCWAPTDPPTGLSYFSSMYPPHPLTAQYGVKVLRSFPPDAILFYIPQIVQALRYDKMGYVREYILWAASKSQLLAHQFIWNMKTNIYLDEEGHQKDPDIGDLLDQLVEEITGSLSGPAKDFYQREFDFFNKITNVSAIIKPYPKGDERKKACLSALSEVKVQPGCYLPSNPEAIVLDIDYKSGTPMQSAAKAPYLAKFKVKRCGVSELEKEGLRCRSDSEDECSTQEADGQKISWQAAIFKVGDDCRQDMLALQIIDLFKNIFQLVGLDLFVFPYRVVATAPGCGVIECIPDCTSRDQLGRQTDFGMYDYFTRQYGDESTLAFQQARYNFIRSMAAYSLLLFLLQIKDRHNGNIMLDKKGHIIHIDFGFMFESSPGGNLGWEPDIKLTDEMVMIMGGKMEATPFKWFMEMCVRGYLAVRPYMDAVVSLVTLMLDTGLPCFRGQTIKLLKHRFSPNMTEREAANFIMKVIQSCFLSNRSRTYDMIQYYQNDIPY
# UniProt P27986, whole entry partner: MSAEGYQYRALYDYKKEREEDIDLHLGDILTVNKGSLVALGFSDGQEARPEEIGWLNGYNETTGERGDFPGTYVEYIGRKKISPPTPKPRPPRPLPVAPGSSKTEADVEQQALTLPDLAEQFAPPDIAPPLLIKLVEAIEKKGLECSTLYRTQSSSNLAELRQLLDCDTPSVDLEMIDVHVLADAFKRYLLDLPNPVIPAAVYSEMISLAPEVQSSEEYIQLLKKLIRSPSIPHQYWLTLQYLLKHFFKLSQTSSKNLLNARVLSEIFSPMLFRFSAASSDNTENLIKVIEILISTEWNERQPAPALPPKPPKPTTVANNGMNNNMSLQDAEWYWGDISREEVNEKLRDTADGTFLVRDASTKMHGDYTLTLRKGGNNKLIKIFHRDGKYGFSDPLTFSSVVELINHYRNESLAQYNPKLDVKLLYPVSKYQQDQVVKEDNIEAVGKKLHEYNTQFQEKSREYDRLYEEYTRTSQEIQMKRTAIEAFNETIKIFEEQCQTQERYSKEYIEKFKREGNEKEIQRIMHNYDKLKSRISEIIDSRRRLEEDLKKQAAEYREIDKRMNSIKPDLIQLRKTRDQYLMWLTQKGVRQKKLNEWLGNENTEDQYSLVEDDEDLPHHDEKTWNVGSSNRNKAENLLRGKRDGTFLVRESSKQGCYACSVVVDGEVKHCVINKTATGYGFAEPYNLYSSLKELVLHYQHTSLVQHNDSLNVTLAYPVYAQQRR
# Experiments:
# PI4Kcb kinase = PI4Kcb kinase (Homo sapiens, UniProt Q9UBF8); assay: Competition binding assay (Kd)
# A498 = assay: CellTiter Glo cell viability assay; format: cell-based; details: read-out: IC50 Values; Kidney, A498, 72 h
# A549 = assay: CellTiter Glo cell viability assay; format: cell-based; details: read-out: IC50 Values; Lung, A549, 72 h
# CFPAC-1 = assay: CellTiter Glo cell viability assay; format: cell-based; details: read-out: IC50 Values; Pancreatic, CFPAC-1, 72 h
# COLO-205 = assay: CellTiter Glo cell viability assay; format: cell-based; details: read-out: IC50 Values; Colon, COLO-205, 72 h
# DLD-1 = assay: CellTiter Glo cell viability assay; format: cell-based; details: read-out: IC50 Values; Colon, DLD-1, 72 h
# IGROV-1 = assay: CellTiter Glo cell viability assay; format: cell-based; details: read-out: IC50 Values; Ovarian, IGROV-1, 72 h
# MCF-7 = assay: CellTiter Glo cell viability assay; format: cell-based; details: read-out: IC50 Values; Breast, MCF-7, 72 h
# MiaPaca-2 = assay: CellTiter Glo cell viability assay; format: cell-based; details: read-out: IC50 Values; Pancreatic, MiaPaca-2, 72 h
# NCI-H69 = assay: CellTiter Glo cell viability assay; format: cell-based; details: read-out: IC50 Values; Lung (Small), NCI-H69, 72 h
# PC-3 = assay: CellTiter Glo cell viability assay; format: cell-based; details: read-out: IC50 Values; Prostate, PC-3, 72 h
# RL = assay: CellTiter Glo cell viability assay; format: cell-based; details: read-out: IC50 Values, Lymphoma, 72 h
# UACC-62 = assay: CellTiter Glo cell viability assay; format: cell-based; details: read-out: IC50 Values; Melanoma, UACC-62, 72 h
# PI3Ka = PI3Ka (Homo sapiens, UniProt P42336); assay: HotSpot lipid kinase inhibition assay; details: ATP 10 μM
# PI4Ka = PI4Ka (Homo sapiens, UniProt P42356); assay: HotSpot lipid kinase inhibition assay; details: ATP 10 μM
structure (smiles),measurement,setting,value
COc1cc(O)c2c(=O)c(OC)c(-c3ccc(O)c(O)c3)oc2c1,Kd,PI4Kcb kinase,4.8 ng/mL
same,IC50,A498,50 µM
same,IC50,A549,9.5 µM
same,IC50,CFPAC-1,5.9 µM
same,IC50,COLO-205,18 µM
same,IC50,DLD-1,7.8 µM
same,IC50,IGROV-1,7.1 µM
same,IC50,MCF-7,7.4 µM
same,IC50,MiaPaca-2,17 µM
same,IC50,NCI-H69,9.3 µM
same,IC50,PC-3,11 µM
same,IC50,RL,5.4 µM
same,IC50,UACC-62,20 µM
same,"Compound IC50 (M), PI3Ka",PI3Ka,5.16e-07 M
same,"Compound IC50 (M), PI4Ka",PI4Ka,6.1e-06 M
